Screening results: PubChem BioAssay, Broad Institute
The list is not random: actives were taken first. Their share in the collection is about 2.8%.
PglD inh: PglD (C. jejuni) enzyme inhibition | 0.098% of 360,000 active | inhibition, % at 12.5 µM | purified PglD enzyme, DTNB colorimetric CoA detection; in the data active = inhibition above about 16%, passing the limit was not always enough; inconclusive = no clear call, values can overlap the other calls
MITF TRPM1 HTS: increases MITF-driven TRPM1 promoter luciferase signal; SK-MEL-5 TRPM1-promoter luciferase, 24 h; % of positive control, neutral wells = 0; activation, % at 12.5 µM; 0.75% of 300,000 active; AID 588334;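 active = mean activation of at least 80% with every replicate also reaching 80%; inconclusive = mean reaches 80% but some replicate falls short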;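 also: 0% = neutral control wells and 100% = parthenolide positive control wells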
miR-122 sensor: inhibitors of miR-122 in Huh7 cells | Huh7 miR-122 Renilla luciferase sensor, 48 h; neutral wells = 0, positive control = 100 | activation (reporter increase), % at 12.5 µM | 0.3% of 340,000 active;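 active = mean replicate activation score at least 90 and every replicate individually at or above 90; inconclusive = only one of the two criteria met; inactive = neither criterion met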;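 also: higher luciferase means less miR-122 activity so hits act as miR-122 inhibitors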
esBAF inh: SWI/SNF esBAF complex inhibition; mouse ES cells, Bmi1-luciferase knock-in reporter, 24 h; 100% = twice the neutral-well signal; 2% of 350,000 active; AID 602393; reporter increase, % at 12.5 µM; in the data active = activation above about 40%; inconclusive = no clear call, values can overlap the other calls;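 also: 0% = median of the plate's neutral control wells and 100% = double that signal; a rise in the Bmi1 reporter signal indicates esBAF inhibition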
Wnt act: activates Wnt/beta-catenin signaling in a reporter cell assay | activator, plate reader | activation, % at 9.35 µM | 1.2% of 300,000 active | AID 743398; in the data active = activation above about 30%, passing the limit was not always enough; inconclusive = no clear call, values can overlap the other calls;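 also: 0% = neutral control wells and 100% = positive control wells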
UUG fidelity: alters start codon recognition fidelity in yeast | S. cerevisiae UUG-firefly luciferase reporter, luminescence/redox ratio | activity score, % at 18.7 µM | hit rate 0.13% among 350,000 | AID 602363;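 active means replicate mean at a twofold rise or more, about +100% in these data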;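 further: firefly luciferase made from a UUG start codon reports start codon fidelity; reporter light over untreated wells divided by growth signal over untreated wells; some hits fall short of that in this replicate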
* marks the source's active call; other numbers are inactive results; ? = inconclusive; / = no result; [ ] = another dose, or the depositor's remark.

Fields: MITF TRPM1 HTS, UUG fidelity, PglD inh, Wnt act, miR-122 sensor, esBAF inh
C[C@H](CO)N1C[C@H](C)[C@@H](CN(C)C(=O)Nc2ccc(C(F)(F)F)cc2)OCCCC[C@H](C)Oc2ccc(N(C)C)cc2C1=O
    /, /, /, /, 5[16.7 µM], -6
CCOc1cc(S(=O)(=O)NCCc2ccccc2C)c(OCC)cc1-n1cnnn1
    1, 24, -3, -3, 126*, -5
CCSc1ccc(NC(=O)c2cccnc2)cc1
    /, -5, 0, 37*, -3, 37
O=C(Nc1ccc(N2CCN(Cc3ccccc3Cl)CC2)cc1)c1cccnc1
    9, -4, -5, /, -4, 13
O=C(Nc1ccc(N2CCCCC2)cc1)c1cccnc1
    36, -22, -4, /, 7, 62*
CCc1ccc(NC(=O)c2cccnc2)cc1
    74, -10, -2, 53*, -3, 46*
CCCNS(=O)(=O)c1ccc(NC(=O)c2cccnc2)cc1
    -5, 13, 3, -6, -1, -14
C[C@@H]1CCCCO[C@H](CN(C)S(=O)(=O)c2ccc(F)cc2)[C@H](C)CN([C@@H](C)CO)C(=O)c2cc(NC(=O)C3CCCCC3)ccc2O1
    /, 10, -2, /, -3[16.7 µM], 0
CO[C@@H]1CN(C)C(=O)c2cc(NC(=O)Nc3c(C)noc3C)ccc2OC[C@H](C)N(CC2CC2)C[C@@H]1C
    /, -4, -3, /, /, -4
O=C(Nc1nc2ccc(F)cc2s1)c1ccc([N+](=O)[O-])o1
    /, -23, -4, 71*, -12, 88*
O=C(Nc1nc2c(F)cccc2s1)c1ccc([N+](=O)[O-])o1
    /, -16, 0, 0, /, 30
O=C(CCNC(=O)c1ccccc1Cl)Nc1nc2ccc(F)cc2s1
    50, -6, /, 18, 0, 52*
O=C(Nc1nc2ccc(F)cc2s1)c1cccs1
    46, /, /, 57*, /, /
Cc1ccc(C(=O)CSc2nnc(-c3ccco3)n2Cc2ccccc2)cc1
    70, -36, -1, 0, 5, 28
O=C(CSc1nnc(-c2ccco2)n1Cc1ccccc1)c1ccccc1
    91*, -7, 4, /, 3, 44*
Nc1ccccc1-c1nnc(-c2ccc(-c3ccccc3)cc2)o1
    91*, -8, -2, /, 0, 21
CSc1ccccc1-c1nnc(-c2ccccc2)o1
    78, -8, 1, /, 0, 43*
Nc1ccc(-c2nnc(-c3ccc(N)cc3)o2)cc1
    99*, -24, 3, 35*, 3, 10
CSc1ccccc1-c1nnc(-c2ccc(C)cc2)o1
    51, /, /, /, 3, /
CCCC#Cc1ccc2c(c1)O[C@H](CN(C)C(=O)CC1CC1)[C@@H](C)CN([C@@H](C)CO)S2(=O)=O
    /, 2, 0, /, 4[16.7 µM], -1
C[C@@H]1CN([C@@H](C)CO)C(=O)c2c(c3ccccc3n2C)-c2ccccc2CO[C@H]1CN(C)C(=O)Nc1ccccc1
    /, 22, 1, /, /, 4
CCOc1ccc(S(=O)(=O)c2c(C(=O)c3ccc(C)cc3)cnc3cc4c(cc23)OCCO4)cc1
    -9, -16, -3, /, 48, /
Cc1ccc(C(=O)c2cnc3cc4c(cc3c2S(=O)(=O)c2ccccc2)OCCO4)cc1
    30, -7, -5, 1, -7, 118*
Cc1ccc2c(c1)c1c(n2C)C(C(N)=O)CCC1 (centres undefined)
    -2, 1, 7, 4, -2, -1
Cc1ccc2c(c1)c1c(n2C)-c2[nH]ncc2CC1
    /, -6, 4, 41*, -11, 22
N#C/C(=C\c1cccs1)C(=O)NCC1CCCO1 (centres undefined)
    /, /, /, 39*, -3, 18
COc1ccc2c(c1)C(=NN)c1cc(OC)ccc1-2
    -5, -6, -4, /, -6, 43*
O=C(C[C@@H]1C=C[C@@H](NC(=O)NC2CCCCC2)[C@H](CO)O1)NCc1ccc(Cl)cc1
    /, 14, 4, /, /, 1
O=C(CSc1nc(-c2ccc(F)cc2)cs1)N1CCOCC1
    69, -10, 3, /, -1, 66*
COc1ccccc1N1CCN(C2=Nc3cccc4cccc2c34)CC1
    95*, -9, -2, -3, -10, 38
C[C@H](CO)N1C[C@H](C)[C@H](CN(C)C(=O)Nc2ccc(F)cc2)Oc2ccc(N(C)C)cc2C1=O
    /, 5, 0, /, 2[16.7 µM], -3
CN1c2ccc(Br)cc2[C@@H]2[C@@H](CCN2C(=O)C2CCOCC2)[C@@H]1CO
    /, 15, -3, /, -3[16.7 µM], -1
CN(C)c1ccnc2sc3c(SCc4ccc(Cl)cc4)ncnc3c12
    91*, /, /, /, /, /
COc1ccc(NC(=O)Nc2ccc3c(c2)[C@H]2C[C@H](CC(=O)NCc4ccccn4)O[C@@H](CO)[C@H]2O3)cc1
    /, /, 2, /, 6[16.7 µM], -4
O=C(Nc1ccc2nc3n(c(=O)c2c1)CCCCC3)c1ccccc1[N+](=O)[O-]
    12, 4, -1, 5, -3, 21
O=C(Nc1ccc2nc3n(c(=O)c2c1)CCCC3)c1ccccc1F
    39, 0, -3, 11, -9, 45*
O=C(Nc1ccc2nc3n(c(=O)c2c1)CCCC3)c1cccc(F)c1
    72, -11, 1, 9, /, 45*
CCNCc1ccccc1OCc1ccccc1
    5, /, /, 0, /, /
Oc1ccc(NCc2ccccc2OCc2ccccc2)cc1
    -7, /, /, 39*, /, /
Cn1c(C(=O)NCc2ccccn2)cc2c(=O)n3ccccc3nc21
    ?, /, /, /, -9, 54*
Cn1c(C(=O)NC2CCCCC2)cc2c(=O)n3ccccc3nc21
    ?, -5, -2, 12, -3, 33
CO[C@@H]1CN(C)C(=O)c2cc(NC(=O)C3CC3)ccc2OC[C@H](C)N(C(=O)c2ccccn2)C[C@H]1C
    /, /, /, /, -9[16.7 µM], 3
O=C(O)c1cc(-c2ccc(/C=C3/SC(=S)N(Cc4ccccc4)C3=O)o2)ccc1Cl
    2, -5, 1, -1, 5, 54*
O=C(CC1CC1)N1CC[C@@H]2[C@H]1c1cc(-c3cccc(F)c3)ccc1N[C@@H]2CO
    /, 7, -1, /, -2[16.7 µM], -5
Clc1ccccc1-c1nnc(-c2cccs2)o1
    54, -21, -7, 12, -2, 46*
C(=C\c1nnc(-c2cccs2)o1)/c1ccccc1
    123*, -19, -4, -2, -2, 7
Cc1ccc(/C=C/c2nnc(-c3ccccc3)o2)cc1
    57, -18, 1, /, -5, 7
COCC#Cc1cnc2c(c1)C(=O)N([C@H](C)CO)C[C@H](C)[C@H](CN(C)C(=O)Nc1ccccc1F)O2
    /, 21, 2, /, 1[16.7 µM], -5
CCS(=O)(=O)Nc1ccc2c(c1)C(=O)N(C)C[C@H](OC)[C@H](C)CN(C(=O)C1CC1)[C@@H](C)CO2
    /, -13, 2, /, /, -1
O=[N+]([O-])c1ccccc1N=Nc1c(O)[nH]c2ccc(F)cc12
    25, /, /, 31*, /, /
O=[N+]([O-])c1ccc(N=Nc2c(O)[nH]c3ccc(F)cc23)cc1
    41, 1, 0, 20, -2, 73*

Profiles as entered above. Values in the order: MITF TRPM1 HTS | UUG fidelity | PglD inh | Wnt act | miR-122 sensor | esBAF inh
Shown for CCSc1ccc(NC(=O)c2cccnc2)cc1 → / | -5 | 0 | 37* | -3 | 37
Shown for CCOc1ccc(S(=O)(=O)c2c(C(=O)c3ccc(C)cc3)cnc3cc4c(cc23)OCCO4)cc1 → -9 | -16 | -3 | / | 48 | /

An excerpt from above in order of number of heavy atoms, lowest first.
Fields: MITF TRPM1 HTS, UUG fidelity, PglD inh, Wnt act, miR-122 sensor, esBAF inh
O=[N+]([O-])c1ccccc1N=Nc1c(O)[nH]c2ccc(F)cc12
    25, /, /, 31*, /, /
CN1c2ccc(Br)cc2[C@@H]2[C@@H](CCN2C(=O)C2CCOCC2)[C@@H]1CO
    /, 15, -3, /, -3[16.7 µM], -1
O=C(Nc1ccc2nc3n(c(=O)c2c1)CCCCC3)c1ccccc1[N+](=O)[O-]
    12, 4, -1, 5, -3, 21
